{"source": "patent US7912651B2", "about": "“Function homology screening” (BioSeek LLC, priority 2000, dated 2011)", "key": {"HUVEC cells [1]": {"tested_on": "HUVEC cells", "test": "HUVEC in basal medium cultured with factor or agent for 24 hours, cell-based ELISA", "set-up": "species or system human", "conditions": "HUVEC cultured with the factor/agent for 24 hours, vs basal medium", "method": "The experiments provided in FIG. 1A-1C illustrate the usefulness of the present invention in compound screening applications. […] After 24 hours, cultures are washed and evaluated for the presence of the parameters ICAM-1 (1), VCAM-1 (2), E-selectin (3), IL-8 (4), CD31 (5), HLA-DR (6) and MIG (7) by cell-based ELISA as described (Melrose, J. Immunol. 161:2457, 1998). For this, plates are blocked with 1% Blotto for 1 hr, and treated with primary antibodies (obtained from Pharmingen and Becton Dickinson) at 1 ng/ml for 2 hr. After washing, secondary peroxidase-conjugated anti-mouse IgG antibody (Promega) at 1:2500 is applied for 45 min. After washing, TMB substrate (Kierkegaard & Perry) is added and color developed. Development is stopped by addition of H2SO4 and the absorbance at 450 nm (subtracting the background absorbance at 600 nm) is read with a Molecular Dynamics plate reader. The relative expression levels of each parameter are indicated by the OD at 450 nm shown along the y-axis. The mean+/−SD from triplicate samples is shown. The assay combinations shown in FIG. 1 are useful in screening compounds that modulate TNF-α, IL-1 and IFN-γ signaling pathways, however, compounds must be evaluated separately in all three assay combinations to identify compounds that selectively modulate one or more of these pathways. In addition, compounds that selectively modulate combinatorial effects of these pathways cannot be distinguished.\nAn assay combination with improved usefulness is described in FIG. 1B. […] The mean+/−SD from triplicate samples are shown. * indicates p<0.05 comparing results obtained with the two separate conditions. […] HUVEC cultured with IFN-γ for 24 hours express increased levels of ICAM-1, HLA-DR and MIG. HUVEC cultured in the presence of both TNF-α and IFN-γ for 24 hours produce a combined phenotype where HUVEC express increased levels of ICAM-1, VCAM-1, E-selectin, HLA-DR and MIG. […]"}, "HUVEC cells [2]": {"tested_on": "HUVEC cells"}}, "data": [{"substance": "TNF-α: proinflammatory cytokine used as factor", "values": [{"measurement": "level of E-selectin", "setting": "HUVEC cells [1]", "result": "increased"}, {"measurement": "level of ICAM-1", "setting": "HUVEC cells [1]", "result": "increased"}, {"measurement": "level of VCAM-1", "setting": "HUVEC cells [1]", "result": "increased"}, {"measurement": "release of cytoplasmic lactate dehydrogenase into the supernatant (cell damage) vs basal conditions", "setting": "HUVEC cells [2]", "result": "enhanced"}]}]}
